Test results as given in patent publication US11118211B2, “Methods for the design of mechanism-based sirtuin activating compounds” (CHAKRABARTI ADVANCED TECHNOLOGY LLC, priority 2015, dated 2021).

Molecular target: T1, Human Sirt3 protein (Homo sapiens, UniProt Q9NTG7)
T1 sequence (Q9NTG7 102-399): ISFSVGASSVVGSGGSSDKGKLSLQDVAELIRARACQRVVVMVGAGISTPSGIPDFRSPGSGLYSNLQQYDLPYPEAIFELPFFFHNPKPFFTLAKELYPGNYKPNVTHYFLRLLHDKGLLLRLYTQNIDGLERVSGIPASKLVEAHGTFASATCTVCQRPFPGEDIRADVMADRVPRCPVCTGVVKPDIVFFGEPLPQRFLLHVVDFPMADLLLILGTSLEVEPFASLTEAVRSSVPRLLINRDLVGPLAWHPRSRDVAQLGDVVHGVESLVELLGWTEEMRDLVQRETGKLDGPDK
Settings: Honokiol at 10 uM

hit validation by label-free kinetic assay ([NAD+] 50 uM, threshold vapp/v=1.10): not validated as a hit
SIRT3 activation in label-free assay (for specified Km,NAD+,app/Km,NAD+=0.7 or 0.8): does not activate SIRT3
SMILES: C=CCc1ccc(O)c(-c2ccc(O)c(CC=C)c2)c1 [Honokiol, 5,3′-Diallyl-2,4′-dihydroxybiphenyl]
